Test system: Prostate cancer lines PC3 and LNCaP
Assay: Preliminary cytotoxicity study of brusatol solution on prostate cancer cell lines (FIG. 1)
Assay type: cell-based, human
Conditions: broad range of concentrations, 72 hours
Experimental: Due to its mechanism of action as a protein synthesis inhibitor, the inventor conducted an investigation into the efficacy of brusatol to inhibit prostate cancer cell line synthesis. Prostate cancer lines PC3 and LNCaP were cultivated in the presence of 1 nM, 100 nM, 1,000 nM and 10,000 nM concentrations of brusatol and 0.1% DMSO as a control.
The human prostate cancer cell lines, PC3 and LNCaP, were obtained from American Type Culture Collection (Manassas, VA). The PC3 and LNCaP cell lines were maintained in RPMI 1640 supplemented with 10% (v/v) FBS and 100 U/mL of penicillin G and 100 µg/mL of streptomycin sulfate. The cells were maintained as a monolayer in an incubator at 37° C. in a humid atmosphere with 5% CO2.

Brusatol
cytotoxicity (in words): toxicity to both prostate cancer cell lines

From patent US11826344B2, “Composition, method of manufacture, and use of site-specific delivery of bruceolides for treatment of cancer and other diseases” (HOWARD UNIVERSITY, priority 2015, dated 2023)
